# Experiments:
# The chains behind the UniProt entries cited, without tags or fusion partners. Residues count along the entry.
# UniProt P36888, 27-993 limits assumed: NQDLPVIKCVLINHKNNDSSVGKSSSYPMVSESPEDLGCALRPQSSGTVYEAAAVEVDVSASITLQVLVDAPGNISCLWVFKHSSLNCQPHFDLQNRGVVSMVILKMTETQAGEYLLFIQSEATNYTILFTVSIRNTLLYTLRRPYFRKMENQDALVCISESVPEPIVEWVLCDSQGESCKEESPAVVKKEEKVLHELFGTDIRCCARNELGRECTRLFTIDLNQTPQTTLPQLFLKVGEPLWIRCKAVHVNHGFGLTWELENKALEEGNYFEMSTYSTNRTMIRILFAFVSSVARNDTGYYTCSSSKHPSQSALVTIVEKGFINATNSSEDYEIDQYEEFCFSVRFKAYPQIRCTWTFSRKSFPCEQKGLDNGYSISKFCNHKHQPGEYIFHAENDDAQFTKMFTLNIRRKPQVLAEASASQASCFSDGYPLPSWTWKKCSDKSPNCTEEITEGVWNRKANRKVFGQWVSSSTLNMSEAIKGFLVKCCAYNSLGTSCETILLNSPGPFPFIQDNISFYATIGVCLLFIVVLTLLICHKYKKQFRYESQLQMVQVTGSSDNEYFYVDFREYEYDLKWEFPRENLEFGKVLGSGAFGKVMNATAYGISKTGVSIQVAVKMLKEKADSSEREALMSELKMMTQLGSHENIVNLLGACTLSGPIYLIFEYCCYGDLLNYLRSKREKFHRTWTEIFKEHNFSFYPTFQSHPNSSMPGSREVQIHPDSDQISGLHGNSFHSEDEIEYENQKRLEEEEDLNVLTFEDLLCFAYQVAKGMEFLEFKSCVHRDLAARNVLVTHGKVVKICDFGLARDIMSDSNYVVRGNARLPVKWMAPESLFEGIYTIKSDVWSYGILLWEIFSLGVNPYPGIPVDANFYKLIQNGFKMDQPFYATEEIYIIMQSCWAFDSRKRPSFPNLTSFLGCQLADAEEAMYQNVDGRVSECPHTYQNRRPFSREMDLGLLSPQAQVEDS
# UniProt P10721, 26-976 limits assumed: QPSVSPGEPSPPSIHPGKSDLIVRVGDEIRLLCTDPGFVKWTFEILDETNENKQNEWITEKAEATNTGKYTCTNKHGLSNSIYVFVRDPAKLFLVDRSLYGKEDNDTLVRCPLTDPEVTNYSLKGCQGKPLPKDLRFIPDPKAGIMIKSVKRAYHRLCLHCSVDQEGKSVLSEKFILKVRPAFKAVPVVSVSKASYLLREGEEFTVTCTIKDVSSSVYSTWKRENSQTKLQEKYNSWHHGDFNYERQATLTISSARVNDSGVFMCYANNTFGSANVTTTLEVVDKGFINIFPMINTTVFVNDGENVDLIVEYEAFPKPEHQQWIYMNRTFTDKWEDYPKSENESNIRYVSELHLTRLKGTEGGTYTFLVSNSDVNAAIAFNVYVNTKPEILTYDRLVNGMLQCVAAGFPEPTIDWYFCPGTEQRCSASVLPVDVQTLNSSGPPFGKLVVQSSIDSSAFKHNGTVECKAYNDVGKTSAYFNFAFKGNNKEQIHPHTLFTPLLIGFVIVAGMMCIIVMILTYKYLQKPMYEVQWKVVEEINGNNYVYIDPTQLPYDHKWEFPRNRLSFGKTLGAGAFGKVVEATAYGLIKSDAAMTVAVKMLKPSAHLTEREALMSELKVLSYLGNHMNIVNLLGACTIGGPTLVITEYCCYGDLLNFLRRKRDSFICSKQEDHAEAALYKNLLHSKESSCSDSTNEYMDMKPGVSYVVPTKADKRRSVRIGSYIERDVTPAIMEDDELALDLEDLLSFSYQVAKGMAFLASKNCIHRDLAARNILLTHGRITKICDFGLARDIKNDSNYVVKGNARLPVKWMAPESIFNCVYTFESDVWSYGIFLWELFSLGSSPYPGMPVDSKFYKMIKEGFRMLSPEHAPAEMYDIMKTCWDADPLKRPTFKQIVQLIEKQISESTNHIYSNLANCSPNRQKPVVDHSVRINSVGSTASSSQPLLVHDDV
# UniProt P07949, 29-1114 limits assumed: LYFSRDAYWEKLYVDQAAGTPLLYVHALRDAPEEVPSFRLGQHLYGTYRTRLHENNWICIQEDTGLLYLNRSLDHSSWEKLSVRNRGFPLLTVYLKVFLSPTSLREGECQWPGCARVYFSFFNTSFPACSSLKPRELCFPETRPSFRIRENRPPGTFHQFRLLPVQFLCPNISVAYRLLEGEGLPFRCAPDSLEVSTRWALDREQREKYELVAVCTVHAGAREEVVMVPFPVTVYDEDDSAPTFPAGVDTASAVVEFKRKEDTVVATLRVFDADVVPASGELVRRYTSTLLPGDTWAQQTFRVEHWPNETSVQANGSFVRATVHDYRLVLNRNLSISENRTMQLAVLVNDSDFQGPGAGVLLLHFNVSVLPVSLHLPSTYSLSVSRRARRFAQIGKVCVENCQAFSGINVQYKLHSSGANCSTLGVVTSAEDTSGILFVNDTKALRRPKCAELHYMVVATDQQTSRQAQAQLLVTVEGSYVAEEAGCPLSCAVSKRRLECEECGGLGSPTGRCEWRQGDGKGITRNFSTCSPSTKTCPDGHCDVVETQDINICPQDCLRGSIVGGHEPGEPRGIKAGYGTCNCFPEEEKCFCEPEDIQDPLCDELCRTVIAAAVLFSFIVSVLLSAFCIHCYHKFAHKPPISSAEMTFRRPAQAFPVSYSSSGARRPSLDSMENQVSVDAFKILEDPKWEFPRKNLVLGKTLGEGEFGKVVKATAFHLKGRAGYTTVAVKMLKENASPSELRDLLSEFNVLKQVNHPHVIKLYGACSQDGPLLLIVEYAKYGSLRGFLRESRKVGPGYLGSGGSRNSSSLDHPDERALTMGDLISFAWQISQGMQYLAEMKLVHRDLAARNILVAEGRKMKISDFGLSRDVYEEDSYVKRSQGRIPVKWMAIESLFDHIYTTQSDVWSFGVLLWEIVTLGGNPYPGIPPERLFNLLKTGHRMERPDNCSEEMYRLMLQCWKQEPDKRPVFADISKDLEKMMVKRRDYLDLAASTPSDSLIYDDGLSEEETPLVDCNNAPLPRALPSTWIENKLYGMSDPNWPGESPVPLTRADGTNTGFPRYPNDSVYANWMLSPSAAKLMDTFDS
# UniProt P36897, 34-503 limits assumed: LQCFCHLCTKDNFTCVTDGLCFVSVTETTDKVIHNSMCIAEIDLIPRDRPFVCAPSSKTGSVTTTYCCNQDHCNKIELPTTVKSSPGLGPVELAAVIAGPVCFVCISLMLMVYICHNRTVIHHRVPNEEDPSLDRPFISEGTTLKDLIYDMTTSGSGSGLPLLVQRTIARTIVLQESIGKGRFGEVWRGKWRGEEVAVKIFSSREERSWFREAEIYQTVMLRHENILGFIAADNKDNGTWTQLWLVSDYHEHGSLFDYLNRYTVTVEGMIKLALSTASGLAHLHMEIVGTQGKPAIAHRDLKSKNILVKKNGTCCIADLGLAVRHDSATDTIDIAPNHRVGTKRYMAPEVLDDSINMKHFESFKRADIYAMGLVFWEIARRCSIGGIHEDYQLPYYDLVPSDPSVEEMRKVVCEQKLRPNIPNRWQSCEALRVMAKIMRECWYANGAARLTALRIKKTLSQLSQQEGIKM
# UniProt P09619, 33-1106 limits assumed: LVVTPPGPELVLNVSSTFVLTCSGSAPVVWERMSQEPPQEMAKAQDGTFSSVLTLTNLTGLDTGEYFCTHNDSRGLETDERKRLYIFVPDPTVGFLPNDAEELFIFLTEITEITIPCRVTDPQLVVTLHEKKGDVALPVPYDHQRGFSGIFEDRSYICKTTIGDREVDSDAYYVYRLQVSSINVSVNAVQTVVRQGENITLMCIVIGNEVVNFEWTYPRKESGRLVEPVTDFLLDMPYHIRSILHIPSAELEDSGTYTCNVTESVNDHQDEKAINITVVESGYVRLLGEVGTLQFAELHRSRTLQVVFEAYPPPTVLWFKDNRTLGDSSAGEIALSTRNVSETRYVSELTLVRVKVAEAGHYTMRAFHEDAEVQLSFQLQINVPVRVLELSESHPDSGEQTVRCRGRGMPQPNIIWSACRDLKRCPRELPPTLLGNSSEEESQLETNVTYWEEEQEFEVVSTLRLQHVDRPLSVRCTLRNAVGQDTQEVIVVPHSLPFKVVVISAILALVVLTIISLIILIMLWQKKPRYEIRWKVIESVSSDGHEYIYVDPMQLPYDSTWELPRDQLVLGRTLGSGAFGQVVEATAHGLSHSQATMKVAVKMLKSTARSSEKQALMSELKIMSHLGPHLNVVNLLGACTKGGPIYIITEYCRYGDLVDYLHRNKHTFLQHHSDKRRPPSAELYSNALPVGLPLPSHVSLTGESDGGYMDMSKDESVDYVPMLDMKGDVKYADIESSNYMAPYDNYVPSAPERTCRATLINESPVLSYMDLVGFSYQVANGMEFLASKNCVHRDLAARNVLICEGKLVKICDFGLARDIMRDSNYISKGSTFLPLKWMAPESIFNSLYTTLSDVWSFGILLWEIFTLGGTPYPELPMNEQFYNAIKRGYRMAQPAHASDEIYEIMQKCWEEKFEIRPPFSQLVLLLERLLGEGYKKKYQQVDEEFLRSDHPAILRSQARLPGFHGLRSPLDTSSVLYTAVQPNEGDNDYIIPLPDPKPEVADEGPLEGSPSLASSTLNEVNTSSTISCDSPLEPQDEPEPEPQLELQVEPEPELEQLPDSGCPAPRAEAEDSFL
# UniProt P29317, 24-976 limits assumed: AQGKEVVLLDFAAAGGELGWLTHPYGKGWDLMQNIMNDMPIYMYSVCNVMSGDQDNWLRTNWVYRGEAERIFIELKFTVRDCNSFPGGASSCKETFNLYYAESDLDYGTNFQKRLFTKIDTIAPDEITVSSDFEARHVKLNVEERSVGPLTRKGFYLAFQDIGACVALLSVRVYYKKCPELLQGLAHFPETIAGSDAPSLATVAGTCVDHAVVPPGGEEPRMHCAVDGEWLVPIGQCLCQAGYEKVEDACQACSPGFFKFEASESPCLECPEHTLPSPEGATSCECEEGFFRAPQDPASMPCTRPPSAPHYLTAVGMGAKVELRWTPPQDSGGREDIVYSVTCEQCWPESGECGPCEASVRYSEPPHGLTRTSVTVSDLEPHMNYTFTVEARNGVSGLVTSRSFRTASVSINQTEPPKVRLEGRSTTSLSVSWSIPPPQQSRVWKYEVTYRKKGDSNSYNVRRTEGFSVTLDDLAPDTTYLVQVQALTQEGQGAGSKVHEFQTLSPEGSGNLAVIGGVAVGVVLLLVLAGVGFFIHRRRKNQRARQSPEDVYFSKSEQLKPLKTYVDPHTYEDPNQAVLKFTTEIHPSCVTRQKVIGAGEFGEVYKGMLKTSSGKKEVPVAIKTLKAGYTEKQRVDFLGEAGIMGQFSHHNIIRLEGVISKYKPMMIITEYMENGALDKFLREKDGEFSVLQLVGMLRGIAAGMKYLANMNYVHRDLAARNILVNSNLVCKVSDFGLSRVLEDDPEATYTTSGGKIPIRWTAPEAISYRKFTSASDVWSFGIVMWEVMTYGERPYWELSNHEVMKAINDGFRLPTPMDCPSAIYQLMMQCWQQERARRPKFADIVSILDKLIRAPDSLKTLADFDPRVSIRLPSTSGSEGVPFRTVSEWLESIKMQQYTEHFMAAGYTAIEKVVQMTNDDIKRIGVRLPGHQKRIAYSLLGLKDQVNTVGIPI
# UniProt P54762, 18-984 limits assumed: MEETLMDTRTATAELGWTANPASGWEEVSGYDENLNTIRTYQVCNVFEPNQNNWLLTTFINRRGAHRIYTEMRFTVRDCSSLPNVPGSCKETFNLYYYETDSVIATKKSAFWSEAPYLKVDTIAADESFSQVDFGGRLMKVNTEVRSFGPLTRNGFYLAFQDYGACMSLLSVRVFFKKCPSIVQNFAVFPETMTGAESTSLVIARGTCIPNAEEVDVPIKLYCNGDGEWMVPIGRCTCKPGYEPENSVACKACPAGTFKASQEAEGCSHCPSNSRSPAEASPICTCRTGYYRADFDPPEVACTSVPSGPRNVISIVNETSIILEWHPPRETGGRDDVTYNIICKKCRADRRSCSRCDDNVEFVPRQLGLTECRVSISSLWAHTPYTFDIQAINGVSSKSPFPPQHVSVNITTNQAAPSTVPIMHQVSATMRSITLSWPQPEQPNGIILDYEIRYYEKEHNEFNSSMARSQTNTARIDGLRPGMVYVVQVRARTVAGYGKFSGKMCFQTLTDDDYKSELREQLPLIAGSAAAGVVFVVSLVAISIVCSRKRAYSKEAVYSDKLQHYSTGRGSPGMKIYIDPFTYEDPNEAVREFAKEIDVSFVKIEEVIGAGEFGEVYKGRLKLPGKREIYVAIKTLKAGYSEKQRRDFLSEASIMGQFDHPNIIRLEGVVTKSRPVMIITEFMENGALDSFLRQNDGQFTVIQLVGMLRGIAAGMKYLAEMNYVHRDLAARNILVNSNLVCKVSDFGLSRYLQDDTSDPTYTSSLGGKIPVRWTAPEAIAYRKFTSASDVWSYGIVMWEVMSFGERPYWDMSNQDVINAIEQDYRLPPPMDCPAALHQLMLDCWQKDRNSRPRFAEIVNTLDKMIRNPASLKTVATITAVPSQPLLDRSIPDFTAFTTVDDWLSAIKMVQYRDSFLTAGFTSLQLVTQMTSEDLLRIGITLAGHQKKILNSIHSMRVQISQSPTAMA
# [1] = system: immune cells present in the tumour microenvironment; settings: mouse, in vivo
# [2] = in vivo; cited from earlier work
# [3] = target: ACV-R1B (Homo sapiens (Human), UniProt P36896); test: biochemical; settings: read-out: Residual activity (%) at 1 μM
# [4] = target: MAP4K5 (Homo sapiens (Human), UniProt Q9Y4K4); test: biochemical; settings: read-out: Residual activity (%) at 1 μM
# [5] = system: KU812 tumours; settings: 50 mg/kg/day for 5 days, large KU812 tumours; cited from earlier work
# [6] = system: human plasma-proteins
# [7] = system: MC38 cells; test: cells; settings: Mus musculus, MC-38, 72 h, read-out: MC38 IC50 (nM at 100 ng/mL TNF)
# [8] = target: CYP2C8 (Homo sapiens (Human), UniProt P10632); settings: CYP450 2C8; from NDA 21-986 Pre-clinical Review; cited from earlier work
# [9] = target: RPS6KA6 (Homo sapiens (Human), UniProt Q9UK32); test: biochemical; settings: read-out: Residual activity (%) at 1 μM
# [10] = target: TRKB (Homo sapiens (Human), UniProt Q16620); test: biochemical; settings: read-out: Residual activity (%) at 1 μM
# [11] = target: MYLK2 (Homo sapiens (Human), UniProt Q9H1R3); test: biochemical; settings: read-out: Residual activity (%) at 1 μM
# [12] = target: p38-alpha (Homo sapiens (Human), UniProt Q16539); test: biochemical; settings: read-out: Residual activity (%) at 1 μM
# [13] = target: TBK1 (Homo sapiens (Human), UniProt Q9UHD2); test: biochemical; settings: read-out: Residual activity (%) at 1 μM
# [14] = target: T1, MAP3K11 (Homo sapiens (Human), UniProt Q16584)
# [15] = target: T2, FLT3 (Homo sapiens (Human), UniProt P36888)
# [16] = target: KIT (Homo sapiens (Human), UniProt P10721); test: biochemical; settings: read-out: Residual activity (%) at 1 μM
# [17] = target: EPH-A4 (Homo sapiens (Human), UniProt P54764); test: biochemical; settings: read-out: Residual activity (%) at 1 μM
# [18] = target: EPH-A7 (Homo sapiens (Human), UniProt Q15375); test: biochemical; settings: read-out: Residual activity (%) at 1 μM
# [19] = target: T1, MAP3K11; test: biochemical; settings: read-out: Residual activity (%) at 1 μM, MAP3K11
# [20] = target: T3, RET (Homo sapiens (Human), UniProt P07949)
# [21] = target: T4, EPH-A6 (Homo sapiens (Human), UniProt Q9UF33)
# [22] = target: T2, FLT3; test: biochemical; settings: read-out: Residual activity (%) at 1 μM
# [23] = target: EPH-B3 (Homo sapiens (Human), UniProt P54753); test: biochemical; settings: read-out: Residual activity (%) at 1 μM
# [24] = target: WNK2 (Homo sapiens (Human), UniProt Q9Y3S1); test: biochemical; settings: read-out: Residual activity (%) at 1 μM
# [25] = target: T3, RET; test: biochemical; settings: read-out: Residual activity (%) at 1 μM, RET
# [26] = target: ACV-R1 (Homo sapiens (Human), UniProt Q04771); test: biochemical; settings: read-out: Residual activity (%) at 1 μM
# [27] = target: NIK (Homo sapiens (Human), UniProt Q99558); test: biochemical; settings: read-out: Residual activity (%) at 1 μM
# [28] = target: T4, EPH-A6; test: biochemical; settings: read-out: Residual activity (%) at 1 μM
# [29] = target: EPH-B4 (Homo sapiens (Human), UniProt P54760); test: biochemical; settings: read-out: Residual activity (%) at 1 μM
# [30] = target: T5, p38-beta (Homo sapiens (Human), UniProt Q15759)
# [31] = target: TGFB-R1 (Homo sapiens (Human), UniProt P36897); test: biochemical; settings: read-out: Residual activity (%) at 1 μM
# [32] = target: EPH-A8 (Homo sapiens (Human), UniProt P29322); test: biochemical; settings: read-out: Residual activity (%) at 1 μM
# [33] = target: PDGFR-beta (Homo sapiens (Human), UniProt P09619); test: biochemical; settings: read-out: Residual activity (%) at 1 μM
# [34] = target: EPH-A1 (Homo sapiens (Human), UniProt P21709); test: biochemical; settings: read-out: Residual activity (%) at 1 μM
# [35] = target: EPH-B2 (Homo sapiens (Human), UniProt P29323); test: biochemical; settings: read-out: Residual activity (%) at 1 μM
# [36] = target: ERBB2 (Homo sapiens (Human), UniProt P04626); test: biochemical; settings: read-out: Residual activity (%) at 1 μM
# [37] = target: PDGFR-alpha (Homo sapiens (Human), UniProt P16234); test: biochemical; settings: read-out: Residual activity (%) at 1 μM
# [38] = target: MST4 (Homo sapiens (Human), UniProt Q9P289); test: biochemical; settings: read-out: Residual activity (%) at 1 μM
# [39] = target: EPH-A2 (Homo sapiens (Human), UniProt P29317); test: biochemical; settings: read-out: Residual activity (%) at 1 μM
# [40] = target: T6, NEK11 (Homo sapiens (Human), UniProt Q8NG66)
# [41] = target: T6, NEK11; test: biochemical; settings: read-out: Residual activity (%) at 1 μM, NEK11
# [42] = target: BRAF (Homo sapiens (Human), UniProt P15056); test: biochemical; settings: read-out: Residual activity (%) at 1 μM, BRAF
# [43] = target: BMPR1A (Homo sapiens (Human), UniProt P36894); test: biochemical; settings: read-out: Residual activity (%) at 1 μM
# [44] = target: FGF-R2 (Homo sapiens (Human), UniProt P21802); test: biochemical; settings: read-out: Residual activity (%) at 1 μM
# [45] = target: EPH-A5 (Homo sapiens (Human), UniProt P54756); test: biochemical; settings: read-out: Residual activity (%) at 1 μM
# [46] = target: EPH-A3 (Homo sapiens (Human), UniProt P29320); test: biochemical; settings: read-out: Residual activity (%) at 1 μM
# [47] = target: EPH-B1 (Homo sapiens (Human), UniProt P54762); test: biochemical; settings: read-out: Residual activity (%) at 1 μM
# [48] = target: T5, p38-beta; test: biochemical; settings: read-out: Residual activity (%) at 1 μM
# [49] = target: ACV-R2B (Homo sapiens (Human), UniProt Q13705); test: biochemical; settings: read-out: Residual activity (%) at 1 μM
structure (smiles),measurement,setting,value
"Cc1nc(Nc2ncc(C(=O)Nc3c(C)cccc3Cl)s2)cc(N2CCN(CCO)CC2)n1 [Compound A8, N-(2-chloro-6-methylphenyl)-2-((6-(4-(2-hydroxyethyl)piperazin-1-yl)-2-methylpyrimidin-4-yl)amino)thiazole-5-carboxamide, reference compound]",immunosuppressive M2 macrophages (CD206+MHC-II+),[1],significantly reduced
same,terminal / elimination half-life,[2],3 to 5 h
same,remaining activity at 1 µM,[3],10%
same,remaining activity at 1 µM,[4],3%
same,anti-tumour activity,[5],curative
same,Percentage unbound (%),[6],2%
same,IC50,[7],< 100 nM
same,IC50,[8],12 µM
same,remaining activity at 1 µM,[9],95%
same,remaining activity at 1 µM,[10],100%
same,remaining activity at 1 µM,[11],91%
same,remaining activity at 1 µM,[12],12%
same,remaining activity at 1 µM,[13],86%
"Cc1nc(Nc2ncc(C(=O)Nc3c(Cl)ccnc3C)s2)cc(N2CCN(CCO)CC2)n1 [Compound B3, N-(4-chloro-2-methylpyridin-3-yl)-2-((6-(4-(2-hydroxyethyl)piperazin-1-yl)-2-methylpyrimidin-4-yl)amino)thiazole-5-carboxamide]",Residual activity (%) at 1 μM,[14],61%
same,Residual activity (%) at 1 μM,[15],32%
same,remaining activity at 1 µM,[16],5%
same,remaining activity at 1 µM,[17],10%
same,remaining activity at 1 µM,[18],88%
same,remaining activity at 1 µM,[19],61%
same,Residual activity (%) at 1 μM,[20],98%
same,Residual activity (%) at 1 μM,[21],86%
same,remaining activity at 1 µM,[22],32%
same,remaining activity at 1 µM,[3],41%
same,remaining activity at 1 µM,[23],3%
same,remaining activity at 1 µM,[4],28%
same,remaining activity at 1 µM,[24],100%
same,remaining activity at 1 µM,[25],~100%
same,remaining activity at 1 µM,[26],48%
same,remaining activity at 1 µM,[27],100%
same,remaining activity at 1 µM,[28],86%
same,remaining activity at 1 µM,[29],1%
same,Residual activity (%) at 1 μM,[30],63%
same,remaining activity at 1 µM,[31],28%
same,remaining activity at 1 µM,[32],3%
same,remaining activity at 1 µM,[33],6%
same,remaining activity at 1 µM,[34],3%
same,remaining activity at 1 µM,[35],15%
same,remaining activity at 1 µM,[36],84%
same,remaining activity at 1 µM,[37],18%
same,remaining activity at 1 µM,[38],107%
same,remaining activity at 1 µM,[39],0%
same,Residual activity (%) at 1 μM,[40],89%
same,remaining activity at 1 µM,[41],~90%
same,remaining activity at 1 µM,[42],~50%
same,remaining activity at 1 µM,[43],83%
same,remaining activity at 1 µM,[44],74%
same,remaining activity at 1 µM,[45],1%
same,remaining activity at 1 µM,[46],0%
same,remaining activity at 1 µM,[47],0%
same,remaining activity at 1 µM,[48],63%
same,remaining activity at 1 µM,[49],57%
same,remaining activity at 1 µM,[12],38%

# From US12172993B2 (priority 2018, dated 2024)
